Apparent affinities of Ab-91 variants for a coronavirus HR2 peptide

Reference: Engelhart et al. 2022, doi:10.1038/s41597-022-01779-4. File: FLAb, binding data.

Target peptide (SARS-CoV-2 spike, HR2 region): PDVDLGDISGINAS

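The starting antibody came from a phage panning campaign against this peptide. Variants in AAYL51 differ from the parent at up to three CDR positions; double and triple changes were sampled at random. In AlphaSeq, yeast of one mating type display the scFv and yeast of the other type display the target. After mating in shaken culture at 30 °C for 16 h, diploids were selected and their barcode pairs sequenced. Scores were corrected for input abundance and mapped to Kd with protein pairs of known affinity run in the same pool. Mating was done three times.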

Ab-91 is the parent antibody, in scFv form: VL, then three GGGGS repeats, then VH. The light chain is unchanged in all variants.
VL: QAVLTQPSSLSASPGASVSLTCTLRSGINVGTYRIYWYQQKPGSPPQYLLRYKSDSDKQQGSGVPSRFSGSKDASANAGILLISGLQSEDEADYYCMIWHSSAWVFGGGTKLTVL
VH: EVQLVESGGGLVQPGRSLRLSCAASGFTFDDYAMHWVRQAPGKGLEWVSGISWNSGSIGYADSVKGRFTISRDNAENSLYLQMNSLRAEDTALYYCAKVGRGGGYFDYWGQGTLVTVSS

Each variant is given by its three heavy chain CDRs, as the data file delimits them; those of the parent are GFTFDDYAMH, GISWNSGSIGYADSVK, VGRGGGYFDY. Affinities are written as log10 Kd with Kd in nM; a lower number is a better binder. A mean of the replicates is given; it leaves out those without a signal. "nd" marks a missing value. The strain was present, yet no cells mated with the target were sequenced in that replicate, which points to weak or no binding.

| CDR-H1 | CDR-H2 | CDR-H3 | log10 Kd, replicates | mean, log10 nM | signal with controls |
|---|---|---|---|---|---|
| GFTGDDYAMH | GISWNSGSIGYADSVK | VGAGGGYFDY | nd nd nd | nd | 0 of 9 |
| GFTFDLYAMH | DISWNSGSIGYADSVK | VGRGGGYFDY | nd nd nd | nd | 0 of 9 |
| GFTFDDYAMH | GISWNSYSIGEADSVK | VGRGGGYFDY | nd 3.41 nd | 3.41 | 0 of 9 |
| GFTFDDYAMH | GISWNSGSQGYADSVK | ECRGGGYFDY | 4.25 3.76 nd | 4.01 | 5 of 9 (4.91) |
| GFTFDDYAMH | GISWNSGSIGYAKSVK | VGRGGGCFDY | 2.58 nd nd | 2.58 | 0 of 9 |
| GFTFDDYAMH | NISWNPGSIGYADSVK | VGRGGGYFDM | nd nd nd | nd | 1 of 9 (4.56) |
| GFEEDDYAMH | SISWNSGSIGYADSVK | VGRGGGYFDY | 4.31 nd nd | 4.31 | 3 of 9 (4.44) |
| GFYFDDYAMH | GISWKSHSIGYADSVK | VGRGGGYFDY | nd nd nd | nd | 0 of 9 |
| GFTFDDYAMH | EISWNSGSIGYADFVK | VGRGNGYFDY | nd nd nd | nd | 0 of 9 |
| GFTFDDYAMH | GISWNSGDIEYADSVT | VGRGGGYFDY | nd 6.42 5.30 | 5.86 | 4 of 9 (4.50) |
| GFTFDDYAMH | GISWNWGSIGYADSVK | VGRNGGYFAY | nd nd nd | nd | 0 of 9 |
| GFTFDDYAMH | GISWNSGSIGYADSCS | VGRGGGYHDY | nd 3.45 nd | 3.45 | 1 of 9 (3.19) |
| GFTFDDYAVH | GISWKSGSIGYIDSVK | VGRGGGYFDY | 4.91 6.16 5.33 | 5.47 | 6 of 9 (4.87) |
| GFTFDDYAMV | GISWNSGSIGYADFVK | VGRGGGYFDY | nd 4.53 4.44 | 4.48 | 8 of 9 (4.40) |
| GFTFDDYAMH | GISWNSGSIGYAFSVK | VSRGGGYFDL | nd nd nd | nd | 0 of 9 |
| GFTFDDTAMH | GISWNSGSIGYADSVK | VGRGGGYLDY | nd nd nd | nd | 0 of 9 |
| GETDDDYAMH | GISWNSGSIGYADIVK | VGRGGGYFDY | nd nd nd | nd | 4 of 9 (3.88) |
| GFTFDDYAMH | GISWNMGSIGWADSVK | VGRGGGYFDY | nd nd nd | nd | 0 of 9 |
| GFTFDDYAMH | GISVNSGSIGYADSVN | VGRGGPYFDY | 6.04 5.12 4.29 | 5.15 | 7 of 9 (5.54) |
| GFTFDGYAMH | GIEWNSGHIGYADSVK | VGRGGGYFDY | nd nd nd | nd | 3 of 9 (3.94) |
| GFTFPDYAMH | GISWNSGVIGYADSPK | VGRGGGYFDY | 4.96 6.04 nd | 5.50 | 5 of 9 (4.44) |
| GFKFDDYAMH | GISWTSGSIGYADSGK | VGRGGGYFDY | nd nd nd | nd | 0 of 9 |
| GFTFDDYAMH | HFSWNSGSIGYADSNK | VGRGGGYFDY | nd nd nd | nd | 0 of 9 |
| GFTFDDYAMH | GISWNSGSIGCADSVK | VSRGGGMFDY | 4.65 6.62 5.03 | 5.43 | 5 of 9 (5.00) |
| GFTFDCYAMH | GISWNSGSIGYADSVK | VGWGGGYFDY | 4.25 3.31 2.64 | 3.40 | 2 of 9 (4.70) |
| GFFFDDYAMH | GRSWNSGSIGYADSVK | VGRGGGYFDG | nd nd nd | nd | 0 of 9 |
| GFTFDDYAMH | GISWNSGSDVYADSYK | VGRGGGYFDY | nd 4.64 4.17 | 4.40 | 5 of 9 (4.57) |
| GFTFEDYAMH | GISWNSGSIGYADSVK | VGRGGGYFDY | 1.91 1.84 1.80 | 1.85 | 2 of 9 (5.67) |
| GFTFDDYAMH | GISWNSGSIKYADSVK | VGRGGGYPDQ | nd nd nd | nd | 0 of 9 |
| GFTFDDYAMH | GISWNSGSIGYATAVW | VGRGGGYFDY | 3.87 nd nd | 3.87 | 1 of 9 (3.42) |
| GFTFDDYAMH | GISWNSGSIGYCDSVA | VGRGGGYMDY | 3.51 2.80 nd | 3.16 | 1 of 9 (4.12) |
| GFTFDDYAMH | TISANSGSIGYRDSVK | VGRGGGYFDY | nd nd nd | nd | 0 of 9 |

The first 4 entries again:

CDR-H1	CDR-H2	CDR-H3	log10 Kd, replicates	mean, log10 nM	signal with controls
GFTGDDYAMH	GISWNSGSIGYADSVK	VGAGGGYFDY	nd nd nd	nd	0 of 9
GFTFDLYAMH	DISWNSGSIGYADSVK	VGRGGGYFDY	nd nd nd	nd	0 of 9
GFTFDDYAMH	GISWNSYSIGEADSVK	VGRGGGYFDY	nd 3.41 nd	3.41	0 of 9
GFTFDDYAMH	GISWNSGSQGYADSVK	ECRGGGYFDY	4.25 3.76 nd	4.01	5 of 9 (4.91)

For reference, the parent read 1.86 as the reference entry and 0.88 as a member of this library. Nonspecific signal, from three strains lacking the peptide, appeared in 21% of pairings of library AAYL51, centred on 4.54 (5% of these signals below 3.26); values are not corrected for it. The control count says in how many pairings with the empty strains this scFv gave a signal, with their mean in brackets.